Laboratory results reported in patent US6410255B1, “Optical probes and assays” (priority 1999, dated 2002).

Key:
Src kinase = target: T1, Src kinase (Homo sapiens, UniProt P12931); test: Src kinase phosphorylation of optical probes; type: biochemical; settings: fluorescence after protease incubation; read-out: apparent Km with respect to the Src kinase
T1 construct: purchased Upstate Biotechnology
Method: To measure Src kinase activity, two optical probes Src-1 ([…], SEQ. ID. NO: 3) and Src-2 ([…], SEQ. ID. NO: 29) were developed. […] In the second substrate, Src-2, the negatively charged amino acid (Glu=E) in the P′2 position with respect to the protease site, was changed to valine (Val=V) to enable more efficient cleavage of the non-phosphorylated optical probe by chymotrypsin. Src kinase (Upstate Biotechnology) reaction conditions were the same as described in Example 1, except 25 mM glycerol phosphate and 1 mM DTT were also added. Incubation of the optical probe with chymotrypsin (100 nM) and measurement of fluorescence emission ratios were as described in Example 1. The apparent Kms for the two substrates, (determined by fluorescence measurements after protease incubation) with respect to the Src kinase were 11 μM and 19 μM respectively. Other optical probes, designed as described herein, can be generated to create specific optical probes for a range of tyrosine kinase activities that can subsequently be optimized using the methods described herein.

protein kinase A = protein kinase A (Homo sapiens, UniProt P17612); test: Protein kinase A inhibitor assay with optical probe; type: biochemical; settings: inhibitor 10 μM, ATP 10 μM
Method: […] After one hour incubation at 30 C, chymotrypsin to a final concentration of 0.8 nM was added and the 460/530 ratio was determined after one hour, as described above (Example 6).

Row | Compound | Km (Src kinase) [µM] | inhibition of protein kinase A activity (protein kinase A)
1 | GEEEIYGEIEK (fluorescent label; Optical probe specific motif) [Src-1, fluorescently labeled optical probe for Src kinase] | 11 | –
2 | CN[C@@H]1C[C@H]2O[C@@](C)([C@@H]1OC)n1c3ccccc3c3c4c(c5c6ccccc6n2c5c31)C(=O)NC4 [Staurosporin, staurosporin] | – | almost complete inhibition
